Measured values: patent US20210139477A1, “ALK5 INHIBITORS, CONJUGATES, AND USES THEREOF” (Silverback Therapeutics, Inc., priority 2019, published 2021)

By UniProt entry, the sequences of proteins in these tests, tags left out. Residues count along the entry.
UniProt P36897, 34-503 limits assumed: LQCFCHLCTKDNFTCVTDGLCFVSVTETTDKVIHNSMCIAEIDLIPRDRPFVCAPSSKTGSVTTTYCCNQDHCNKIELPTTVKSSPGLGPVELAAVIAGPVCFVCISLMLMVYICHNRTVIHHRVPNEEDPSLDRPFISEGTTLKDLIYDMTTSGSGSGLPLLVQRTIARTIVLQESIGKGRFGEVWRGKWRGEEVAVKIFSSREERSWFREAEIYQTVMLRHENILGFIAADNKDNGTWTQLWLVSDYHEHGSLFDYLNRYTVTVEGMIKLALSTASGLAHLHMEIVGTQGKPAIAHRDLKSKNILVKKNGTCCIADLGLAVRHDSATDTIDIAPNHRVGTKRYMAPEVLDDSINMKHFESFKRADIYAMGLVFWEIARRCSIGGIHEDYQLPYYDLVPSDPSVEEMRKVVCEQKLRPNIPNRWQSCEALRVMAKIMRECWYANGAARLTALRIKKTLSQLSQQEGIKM

Assays:
[1] = test system: TGFb/SMAD Signaling Pathway SBE reporter cell line; assay: TGFb reporter assay (TGFb/SMAD Signaling Pathway SBE luciferase reporter cell line); conditions: read-out: EC50 (TGFb reporter activity); 5-6 h preincubation, then TGFb, 18 h, luciferase luminescence
Method: TGFβ/SMAD Signaling Pathway SBE reporter cell line was obtained from BPS Bioscience. Cells were passed, expanded, and stored in liquid nitrogen as per the supplier's instructions with the exception that growth media is changed to DMEM-C with Geneticin (DMEM supplemented with 10% fetal bovine serum, 1×NEAA, 1 mM Pyruvate, 2 mM glutamine, 50 μg/mL penicillin, 50 U/mL streptomycin and 400 μg/mL of Geneticin). The assay media was MEM supplemented with 0.5% fetal bovine serum, 1×NEAA, 1 mM Pyruvate, 50 μg/mL penicillin and 50 U/mL streptomycin.
TGFb/SMAD Signaling Pathway SBE reporter cell line was obtained from BPS Bioscience. […]
Reporter cells were harvested from the tissue culture flasks by incubation in small quantity of Versene at room temperature for three to five minutes after the media in the flask was removed and cells rinsed with PBS. Cells were counted and diluted in the assay media at 0.8×10^6 cells/mL then 50 uL/well were added to 96-well assay plate. […] Luciferase substrate solution was subsequently added at 75 uL per well, incubated in dark with shaking at room temperature for 10 min, and luminescence was measured using a luminometer.

ALK5 = ALK5 (Homo sapiens, UniProt P36897); assay: ALK5 enzyme inhibition assay (Reaction Biology Corp, 33P-ATP filter-binding, casein substrate); conditions: read-out: IC50 (inhibition of ALK5), 10 uM ATP, 2 hours at room temperature
Method: ALK5 enzyme inhibition assays were performed by Reaction Biology Corp (Malvern, Pa.). 1 mg/mL of peptide substrate (casein) and 10 uM ATP were prepared in a mixture of fresh reaction buffer. The kinase was delivered into the substrate solution which was gently mixed. Compounds in 100% DMSO were added to the kinase reaction mixture by Acoustic technology (Echo550; nanoliter range) and the mixture was incubated for 20 min at room temperature. ^33P-ATP (Specific activity 10 uCi/uL) was added into the reaction mixture to initiate the reaction and the reaction mixture was incubated for 2 hours at room temperature. Radioactivity was detected by filter-binding method and kinase activity data were expressed as the percent remaining kinase activity in test samples compared to vehicle (dimethyl sulfoxide) reactions. IC50 values and curve fits were obtained using Prism (GraphPad Software).

EC50 [1]: 0.1 to 10 nM
IC50 (ALK5): 100 to 1000 nM
Compound: Cc1cccc(-c2nc(CNCCc3ccc(F)cc3)[nH]c2-c2ccc3ncnn3c2)n1
